Experimental data: patent publication US9775844B2, “Heterocyclic compounds and uses thereof” (Infinity Pharmaceuticals, Inc., priority 2014, dated 2017)

Sequences of proteins named here, by UniProt entry; tags and fusion partners are left off. A change or cut given only in a name is not applied to a line headed by its entry.
UniProt O00329: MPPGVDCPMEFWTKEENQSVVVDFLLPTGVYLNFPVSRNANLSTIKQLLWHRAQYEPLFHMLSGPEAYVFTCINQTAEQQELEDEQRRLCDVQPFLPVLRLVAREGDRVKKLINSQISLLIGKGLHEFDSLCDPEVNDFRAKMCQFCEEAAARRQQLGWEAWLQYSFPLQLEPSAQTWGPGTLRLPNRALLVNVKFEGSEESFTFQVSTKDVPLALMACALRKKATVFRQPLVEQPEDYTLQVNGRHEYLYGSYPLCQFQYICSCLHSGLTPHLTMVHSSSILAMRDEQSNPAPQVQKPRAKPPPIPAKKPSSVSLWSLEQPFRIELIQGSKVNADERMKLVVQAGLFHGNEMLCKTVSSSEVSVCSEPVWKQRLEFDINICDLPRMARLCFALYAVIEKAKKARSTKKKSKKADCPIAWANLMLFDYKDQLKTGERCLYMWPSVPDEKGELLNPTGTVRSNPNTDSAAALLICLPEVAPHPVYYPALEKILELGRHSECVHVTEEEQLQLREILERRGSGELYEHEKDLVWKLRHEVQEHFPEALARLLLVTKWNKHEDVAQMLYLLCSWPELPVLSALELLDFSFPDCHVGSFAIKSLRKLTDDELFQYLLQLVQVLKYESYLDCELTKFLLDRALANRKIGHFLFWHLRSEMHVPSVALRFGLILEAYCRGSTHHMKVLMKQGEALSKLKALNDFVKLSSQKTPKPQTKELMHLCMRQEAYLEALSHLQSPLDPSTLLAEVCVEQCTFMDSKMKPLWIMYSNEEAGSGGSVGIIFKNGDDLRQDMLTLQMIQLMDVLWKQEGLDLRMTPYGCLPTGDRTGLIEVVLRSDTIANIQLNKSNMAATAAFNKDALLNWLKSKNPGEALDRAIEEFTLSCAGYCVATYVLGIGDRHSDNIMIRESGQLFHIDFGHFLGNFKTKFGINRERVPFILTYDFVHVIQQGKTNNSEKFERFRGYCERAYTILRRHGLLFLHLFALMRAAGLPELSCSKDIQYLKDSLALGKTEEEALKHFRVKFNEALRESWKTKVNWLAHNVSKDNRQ
UniProt P48736: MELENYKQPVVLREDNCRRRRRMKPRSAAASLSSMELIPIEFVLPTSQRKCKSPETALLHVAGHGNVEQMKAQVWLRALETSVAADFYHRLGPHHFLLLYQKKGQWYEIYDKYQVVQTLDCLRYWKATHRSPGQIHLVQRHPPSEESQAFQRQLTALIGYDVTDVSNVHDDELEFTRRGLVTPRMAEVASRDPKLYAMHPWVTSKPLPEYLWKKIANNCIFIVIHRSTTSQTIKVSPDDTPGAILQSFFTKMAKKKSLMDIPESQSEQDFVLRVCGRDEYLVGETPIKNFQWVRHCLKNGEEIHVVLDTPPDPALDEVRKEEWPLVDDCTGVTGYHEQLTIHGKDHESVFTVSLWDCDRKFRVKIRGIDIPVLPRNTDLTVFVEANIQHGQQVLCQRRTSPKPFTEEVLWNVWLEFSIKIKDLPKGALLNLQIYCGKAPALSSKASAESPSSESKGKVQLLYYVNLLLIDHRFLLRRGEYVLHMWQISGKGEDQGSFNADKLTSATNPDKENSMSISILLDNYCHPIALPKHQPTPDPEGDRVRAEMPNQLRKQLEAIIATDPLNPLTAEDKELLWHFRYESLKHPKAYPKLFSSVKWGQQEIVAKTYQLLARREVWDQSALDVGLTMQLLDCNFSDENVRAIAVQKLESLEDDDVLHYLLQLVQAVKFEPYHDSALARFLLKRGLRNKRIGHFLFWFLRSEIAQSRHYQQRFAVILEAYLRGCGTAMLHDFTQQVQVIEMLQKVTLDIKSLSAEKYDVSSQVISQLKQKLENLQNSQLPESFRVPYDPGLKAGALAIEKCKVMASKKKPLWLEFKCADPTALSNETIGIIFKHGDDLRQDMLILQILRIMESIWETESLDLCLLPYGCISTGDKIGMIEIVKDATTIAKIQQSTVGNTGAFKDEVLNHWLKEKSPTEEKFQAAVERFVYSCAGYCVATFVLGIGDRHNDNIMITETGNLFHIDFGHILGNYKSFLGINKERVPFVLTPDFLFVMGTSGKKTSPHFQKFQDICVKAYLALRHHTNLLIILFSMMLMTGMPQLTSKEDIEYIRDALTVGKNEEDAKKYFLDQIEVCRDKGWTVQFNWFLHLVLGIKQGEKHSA
UniProt P42336, whole entry: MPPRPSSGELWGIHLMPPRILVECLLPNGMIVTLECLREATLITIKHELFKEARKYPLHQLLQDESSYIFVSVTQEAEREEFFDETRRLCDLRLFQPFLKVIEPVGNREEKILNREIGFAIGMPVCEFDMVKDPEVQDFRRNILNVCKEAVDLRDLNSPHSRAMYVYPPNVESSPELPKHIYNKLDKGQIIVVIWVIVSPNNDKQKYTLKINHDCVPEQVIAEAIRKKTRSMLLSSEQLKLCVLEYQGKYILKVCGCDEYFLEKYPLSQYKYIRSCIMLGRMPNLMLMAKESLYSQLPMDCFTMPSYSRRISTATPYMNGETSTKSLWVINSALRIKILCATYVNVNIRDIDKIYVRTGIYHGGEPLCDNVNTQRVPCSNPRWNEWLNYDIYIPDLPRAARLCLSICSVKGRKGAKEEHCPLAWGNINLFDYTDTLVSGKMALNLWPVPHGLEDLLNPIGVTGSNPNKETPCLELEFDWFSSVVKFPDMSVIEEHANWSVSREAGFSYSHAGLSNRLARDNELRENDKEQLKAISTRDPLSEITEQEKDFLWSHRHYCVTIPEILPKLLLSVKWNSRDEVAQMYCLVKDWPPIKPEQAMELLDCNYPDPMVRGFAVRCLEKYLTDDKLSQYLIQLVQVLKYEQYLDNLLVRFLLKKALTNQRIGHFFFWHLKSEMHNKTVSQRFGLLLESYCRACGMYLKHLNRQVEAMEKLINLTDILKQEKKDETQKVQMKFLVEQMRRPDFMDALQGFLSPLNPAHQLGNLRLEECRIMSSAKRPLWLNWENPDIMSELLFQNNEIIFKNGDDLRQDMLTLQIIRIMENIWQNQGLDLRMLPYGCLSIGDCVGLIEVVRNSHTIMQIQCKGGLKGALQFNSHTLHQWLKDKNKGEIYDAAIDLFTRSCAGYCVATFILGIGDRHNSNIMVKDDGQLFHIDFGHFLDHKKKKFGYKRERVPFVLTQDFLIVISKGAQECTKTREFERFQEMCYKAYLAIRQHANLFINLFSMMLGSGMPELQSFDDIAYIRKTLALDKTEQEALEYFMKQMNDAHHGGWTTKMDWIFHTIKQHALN
UniProt P42336, whole entry H1047R: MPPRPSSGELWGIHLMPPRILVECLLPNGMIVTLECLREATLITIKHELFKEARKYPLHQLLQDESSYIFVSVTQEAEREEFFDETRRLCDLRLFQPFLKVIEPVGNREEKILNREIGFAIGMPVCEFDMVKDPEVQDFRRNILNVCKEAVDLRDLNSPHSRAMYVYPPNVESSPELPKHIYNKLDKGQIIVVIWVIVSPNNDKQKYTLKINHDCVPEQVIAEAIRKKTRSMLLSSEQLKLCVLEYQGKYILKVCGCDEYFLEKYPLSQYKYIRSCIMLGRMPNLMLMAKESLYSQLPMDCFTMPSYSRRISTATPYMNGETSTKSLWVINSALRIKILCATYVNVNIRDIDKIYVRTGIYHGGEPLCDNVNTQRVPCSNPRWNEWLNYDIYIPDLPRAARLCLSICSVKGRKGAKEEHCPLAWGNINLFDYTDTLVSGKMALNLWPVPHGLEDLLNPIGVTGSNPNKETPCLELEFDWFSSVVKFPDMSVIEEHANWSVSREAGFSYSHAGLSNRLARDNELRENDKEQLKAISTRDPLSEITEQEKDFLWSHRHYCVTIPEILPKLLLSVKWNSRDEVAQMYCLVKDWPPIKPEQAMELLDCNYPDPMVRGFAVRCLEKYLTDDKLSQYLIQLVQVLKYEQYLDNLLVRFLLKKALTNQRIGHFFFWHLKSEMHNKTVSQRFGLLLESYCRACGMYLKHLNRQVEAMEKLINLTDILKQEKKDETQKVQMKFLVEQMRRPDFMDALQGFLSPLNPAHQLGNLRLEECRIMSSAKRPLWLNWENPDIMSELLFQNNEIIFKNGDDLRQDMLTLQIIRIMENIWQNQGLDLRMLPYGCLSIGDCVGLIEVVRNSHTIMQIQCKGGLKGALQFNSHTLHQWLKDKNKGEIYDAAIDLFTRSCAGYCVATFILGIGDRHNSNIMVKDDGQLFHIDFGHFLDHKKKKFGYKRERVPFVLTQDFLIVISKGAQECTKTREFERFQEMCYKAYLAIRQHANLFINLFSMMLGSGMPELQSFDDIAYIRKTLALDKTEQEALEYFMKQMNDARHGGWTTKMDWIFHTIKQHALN
UniProt Q9JHG7: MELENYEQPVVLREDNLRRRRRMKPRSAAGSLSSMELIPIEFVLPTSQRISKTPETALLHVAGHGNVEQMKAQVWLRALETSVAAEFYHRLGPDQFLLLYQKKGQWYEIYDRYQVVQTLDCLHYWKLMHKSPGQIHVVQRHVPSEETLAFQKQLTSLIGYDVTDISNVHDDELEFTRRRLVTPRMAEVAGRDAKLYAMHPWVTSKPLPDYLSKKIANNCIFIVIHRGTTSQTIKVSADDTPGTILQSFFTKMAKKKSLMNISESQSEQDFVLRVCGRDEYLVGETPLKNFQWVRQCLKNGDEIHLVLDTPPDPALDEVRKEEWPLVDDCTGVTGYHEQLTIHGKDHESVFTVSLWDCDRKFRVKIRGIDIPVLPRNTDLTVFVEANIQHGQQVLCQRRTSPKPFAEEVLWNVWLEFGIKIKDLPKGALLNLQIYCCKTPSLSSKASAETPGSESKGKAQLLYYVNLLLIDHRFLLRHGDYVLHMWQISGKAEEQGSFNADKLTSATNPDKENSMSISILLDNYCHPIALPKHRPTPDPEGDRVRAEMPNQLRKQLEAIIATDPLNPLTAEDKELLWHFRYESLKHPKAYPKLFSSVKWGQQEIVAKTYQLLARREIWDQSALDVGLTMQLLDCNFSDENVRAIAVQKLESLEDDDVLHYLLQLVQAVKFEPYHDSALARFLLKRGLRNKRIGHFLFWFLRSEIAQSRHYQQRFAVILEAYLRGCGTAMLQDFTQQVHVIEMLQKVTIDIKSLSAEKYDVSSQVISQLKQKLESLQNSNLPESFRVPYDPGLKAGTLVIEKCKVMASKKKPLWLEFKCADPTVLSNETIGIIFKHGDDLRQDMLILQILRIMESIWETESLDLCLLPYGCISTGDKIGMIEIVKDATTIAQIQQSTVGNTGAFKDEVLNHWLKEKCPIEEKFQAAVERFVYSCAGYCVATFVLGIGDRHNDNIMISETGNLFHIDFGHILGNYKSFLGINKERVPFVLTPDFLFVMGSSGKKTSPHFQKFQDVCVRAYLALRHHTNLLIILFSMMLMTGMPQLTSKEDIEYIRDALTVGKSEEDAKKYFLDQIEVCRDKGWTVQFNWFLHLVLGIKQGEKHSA
UniProt P42338: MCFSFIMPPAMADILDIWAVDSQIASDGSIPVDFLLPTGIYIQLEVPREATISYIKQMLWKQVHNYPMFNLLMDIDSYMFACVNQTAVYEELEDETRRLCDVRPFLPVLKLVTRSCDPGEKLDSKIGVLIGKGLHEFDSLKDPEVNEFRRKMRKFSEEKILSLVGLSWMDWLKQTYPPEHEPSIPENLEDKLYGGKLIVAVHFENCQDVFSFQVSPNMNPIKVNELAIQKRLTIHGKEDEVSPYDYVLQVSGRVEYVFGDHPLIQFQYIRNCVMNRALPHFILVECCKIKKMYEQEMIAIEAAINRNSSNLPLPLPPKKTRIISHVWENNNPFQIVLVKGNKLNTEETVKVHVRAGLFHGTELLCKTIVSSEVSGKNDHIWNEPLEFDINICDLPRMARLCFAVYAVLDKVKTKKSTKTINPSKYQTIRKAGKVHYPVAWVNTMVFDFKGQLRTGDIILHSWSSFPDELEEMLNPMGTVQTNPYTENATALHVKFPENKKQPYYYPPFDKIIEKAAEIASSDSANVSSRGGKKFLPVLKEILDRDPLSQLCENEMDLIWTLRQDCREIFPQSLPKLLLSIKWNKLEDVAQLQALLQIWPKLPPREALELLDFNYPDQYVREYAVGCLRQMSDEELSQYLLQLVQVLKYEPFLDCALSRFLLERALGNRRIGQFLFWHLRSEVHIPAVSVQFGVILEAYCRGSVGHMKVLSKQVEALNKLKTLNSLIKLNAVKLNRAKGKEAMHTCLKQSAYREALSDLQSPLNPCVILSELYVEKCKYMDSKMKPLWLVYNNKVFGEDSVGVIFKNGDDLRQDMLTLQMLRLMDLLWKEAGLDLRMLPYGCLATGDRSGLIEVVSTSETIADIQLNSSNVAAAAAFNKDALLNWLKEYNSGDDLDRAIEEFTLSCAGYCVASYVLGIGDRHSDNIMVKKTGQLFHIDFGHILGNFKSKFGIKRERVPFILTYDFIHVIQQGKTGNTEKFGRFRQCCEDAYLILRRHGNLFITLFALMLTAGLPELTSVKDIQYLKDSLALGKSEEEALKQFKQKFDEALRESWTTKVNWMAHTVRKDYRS

How the values were obtained:
PI3K-δ in RAJI cells = PI3K-δ in RAJI cells (Homo sapiens (Human), UniProt O00329); assay: RAJI p110 δ assay (PI3K-δ selective cellular assay, phospho-AKT)
PI3K δ = PI3K δ (Homo sapiens (Human), UniProt O00329); assay: PI3-Kinase Promega ADP-Glo Max assay; format: biochemical
PI3K γ = PI3K γ (Homo sapiens (Human), UniProt P48736); assay: PI3-Kinase Promega ADP-Glo Max assay
PI3K α = PI3K α (Homo sapiens (Human), UniProt P42336); assay: PI3-Kinase Promega ADP-Glo Max assay; format: biochemical
[1] = biological target: PI3K-γ in RAW264.7 macrophages (Mus musculus (Mouse), UniProt Q9JHG7); assay: Raw264.7 p110 γ assay (PI3K-γ selective cellular assay, C5a-stimulated phospho-AKT); details: Raw264.7 p110 γ assay IC50
PI3K β = PI3K β (Homo sapiens (Human), UniProt P42338); assay: PI3-Kinase Promega ADP-Glo Max assay; format: biochemical
PI3K-α in SKOV-3 cells = PI3K-α in SKOV-3 cells (Homo sapiens (Human), UniProt P42336, H1047R); assay: PI3K-α selective cellular assay (phospho-AKT); format: cell-based
Description: A compound's ability in selectively inhibiting PI3K-α can be assessed using SKOV-3 cells, i.e., human ovarian carcinoma cell line. Briefly, SKOV-3 cells, in which mutant PI3Kα is constitutively active, can be treated with test compounds.

[2] = RAJI p110 δ assay IC50, phospho-AKT

Question: What does the source list for `C[C@H](NC(=O)c1c(N)nn2cccnc12)c1cc2cccc(C#Cc3cnn(C)c3)c2c(=O)n1-c1ccccc1` [Compound 4]?
Answer: IC50 (PI3K-δ in RAJI cells; [2]): 0.1 to 0.5 µM; IC50 (PI3K δ): 5 to 10 µM

Question: Which IC50 (PI3K γ) does the source give for `C[C@H](NC(=O)c1c(N)nn2cccnc12)c1cc2cccc(C#Cc3ccc(=O)[nH]c3)c2c(=O)n1-c1ccccc1` [Compound 33] here?
Answer: The IC50 was 0.001 to 0.1 µM.

Question: `C[C@H](NC(=O)c1c(N)nn2cccnc12)c1cc2cccc(/C=C/c3cnn(C)c3)c2c(=O)n1-c1ccccc1` [Compound 52] was tested. Which IC50 (PI3K-δ in RAJI cells; [2]) did it give?
Answer: Its IC50 is 0.5 to 1 µM.

Question: And the IC50 (PI3K δ)?
Answer: Its IC50 is 5 to 10 µM.

Question: How did the IC50 (PI3K-δ in RAJI cells; [2]) turn out when `C[C@H](NC(=O)c1c(N)nn2cccnc12)c1cc2cccc(/C=C\c3cnn(C)c3)c2c(=O)n1-c1ccccc1` [Compound 53] was run?
Answer: Its IC50 is 0.5 to 1 µM.

Question: What about the IC50 (PI3K δ) of the same compound?
Answer: Its IC50 is 5 to 10 µM.

Question: With `C[C@H](NC(=O)c1c(N)nn2cccnc12)c1cc2cccc(C#Cc3cnn(C)c3C(F)(F)F)c2c(=O)n1-c1ccccc1` [Compound 69] as the compound, how does the IC50 (PI3K α) read?
Answer: Its IC50 is 5 to 10 µM.

Question: What about the IC50 [1] of the same compound?
Answer: Its IC50 is 0.1 to 10 µM.

Question: What about the IC50 (PI3K β) of the same compound?
Answer: Its IC50 is 5 to 10 µM.

Question: `C[C@H](NC(=O)c1c(N)nn2cccnc12)c1cc2cccc(C#Cc3cn(C)cn3)c2c(=O)n1-c1ccccc1` [Compound 81] was tested. Which IC50 (PI3K γ) did it give?
Answer: Its IC50 is 0.001 to 0.1 µM.

Question: `[2H]c1c([2H])c([2H])c(-n2c([C@H](C)NC(=O)c3c(N)nn4cccnc34)cc3cccc(C#Cc4cnn(C)c4)c3c2=O)c([2H])c1[2H]` [Compound 110] was tested. Which IC50 (PI3K δ) did it give?
Answer: The IC50 was 5 to 10 µM.

Question: What about the IC50 (PI3K α; read-out: PI3K α IC50) of the same compound?
Answer: The IC50 was 5 to 10 µM.

Question: With `C[C@H](NC(=O)c1c(N)nn2cccnc12)c1cc2cccc(C#Cc3cnn(C)c3)c2c(=O)n1-c1ccccc1` [Compound BB] as the compound, how does the IC50 (PI3K-δ in RAJI cells; Cellular IC50 δ) read?
Answer: Its IC50 is 0.197 µM.

Question: What about the IC50 (PI3K-α in SKOV-3 cells) of the same compound?
Answer: Its IC50 is 0.873 µM.

Read-outs that look alike come from different tables or passages of the source.
